Legend:
human wild-type PAH = human wild-type PAH (Homo sapiens, UniProt P00439); test: PAH activity in lysates of HEK293 cells permanently expressing human wild-type PAH; settings: 0.04 mg/ml compound, 1% DMSO, 8 h; Table 3
hPAH = hPAH (Homo sapiens, UniProt P00439); test: SPR screening and affinity determination on immobilized hPAH (Biacore T200); settings: read-out: KD (μM) ± SER, 25° C., compound 0-500 μM in 5% DMSO, affinities said to be overestimated, relative KD reliable

The chains behind the UniProt entries cited, without tags or fusion partners.
UniProt P00439, whole entry: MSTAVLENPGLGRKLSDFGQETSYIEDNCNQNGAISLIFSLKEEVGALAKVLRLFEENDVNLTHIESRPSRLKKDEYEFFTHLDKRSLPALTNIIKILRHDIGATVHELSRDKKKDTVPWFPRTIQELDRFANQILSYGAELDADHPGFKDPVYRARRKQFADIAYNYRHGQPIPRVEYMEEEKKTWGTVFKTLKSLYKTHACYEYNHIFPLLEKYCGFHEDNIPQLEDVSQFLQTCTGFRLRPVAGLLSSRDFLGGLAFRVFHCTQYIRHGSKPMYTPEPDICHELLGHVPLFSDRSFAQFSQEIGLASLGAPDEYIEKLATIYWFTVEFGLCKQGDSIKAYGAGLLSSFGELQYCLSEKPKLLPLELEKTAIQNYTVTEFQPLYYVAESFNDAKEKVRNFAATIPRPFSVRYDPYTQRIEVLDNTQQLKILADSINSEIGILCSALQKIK

PAH activity-cells (%) (human wild-type PAH): 112 ± 10% | Kd (hPAH): 860 µM
Structure (SMILES): COc1ccc(Cc2c(O)nc(N)nc2O)cc1

Reference: patent US10265303B2, “Hyperphenylalaninemia and treatments thereof” (BERGEN TEKNOLOGIOVERFØRING AS, priority 2015, dated 2019)
